In US20240124460A1, “METHODS AND COMPOSITIONS FOR TARGETED PROTEIN DEGRADATION” (Ranok Therapeutics (Hangzhou) Co. Ltd., priority 2020, published 2024) one finds EC50, IC50 and ERBB2 degradation data, which are given here for 12 compounds.

Chains of the proteins cited; added tags and fusions are not shown.
UniProt Q13164, whole entry: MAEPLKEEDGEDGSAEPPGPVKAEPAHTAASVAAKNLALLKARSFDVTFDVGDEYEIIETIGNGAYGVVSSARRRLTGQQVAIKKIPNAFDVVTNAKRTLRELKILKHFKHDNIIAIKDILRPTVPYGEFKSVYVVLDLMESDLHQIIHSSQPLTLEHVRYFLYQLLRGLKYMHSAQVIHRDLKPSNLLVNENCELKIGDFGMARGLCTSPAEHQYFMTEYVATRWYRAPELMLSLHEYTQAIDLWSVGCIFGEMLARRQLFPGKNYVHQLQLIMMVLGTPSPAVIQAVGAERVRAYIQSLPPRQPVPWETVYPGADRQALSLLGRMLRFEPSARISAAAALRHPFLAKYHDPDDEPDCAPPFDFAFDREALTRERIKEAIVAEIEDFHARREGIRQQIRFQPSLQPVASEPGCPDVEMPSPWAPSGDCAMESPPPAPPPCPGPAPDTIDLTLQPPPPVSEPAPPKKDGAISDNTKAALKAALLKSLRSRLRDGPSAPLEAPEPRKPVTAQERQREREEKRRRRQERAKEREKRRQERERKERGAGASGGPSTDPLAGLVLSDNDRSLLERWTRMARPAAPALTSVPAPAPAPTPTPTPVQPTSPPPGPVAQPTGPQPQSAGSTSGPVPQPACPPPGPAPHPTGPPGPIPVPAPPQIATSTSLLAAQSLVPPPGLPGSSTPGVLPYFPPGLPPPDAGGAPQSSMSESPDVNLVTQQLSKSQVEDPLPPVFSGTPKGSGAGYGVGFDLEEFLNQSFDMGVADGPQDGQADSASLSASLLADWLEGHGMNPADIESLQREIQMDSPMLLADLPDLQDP

Assay [1] has as its system U-87 MG human glioblastoma. The assay is described as follows: U87 MG CCK-8 proliferation assay. The settings on record: read-out: U87MG CCK-8; U-87 MG cells, 72 hr; tested form: TFA. As to the method:
(§1) The following cancer cell lines were employed: A549 human lung carcinoma (ATCC, #CCL-185); BT-474 human breast carcinoma (ATCC, #HTB-20); MDA-MB-231 human breast adenocarcinoma (ATCC, #CRM−HTB-26); MDA-MB-468 human breast adenocarcinoma (ATCC, #HTB-132); MV-4-11 human acute myeloid leukemia (ATCC, #CRL-9591); and U-87 MG human glioblastoma (ATCC, #HTB-14). Cell lines were cultured essentially according to ATCC recommendations.
(§2) Cells were plated in 96-well tissue culture plates at 4,000 cells/well and incubated at 37° C./5% CO2 for 24 hr. 3-fold serial dilutions of each test compound were prepared ranging from 20 μM to 1.02 nM. Cells were then treated with test compounds at various concentrations with a final concentration of 0.5% DMSO/well, and then incubated at 37° C./5% CO2 for 72 hr. 10 μl the cell proliferation detection reagent CCK-8 (Dojindo Molecular Technologies, #CK04) was added to each well and incubated at 37° C./5% CO2 for 3-4 hr and the absorbance at 450 nm measured using an Perkin Elmer EnVision Plate Reader. Compound inhibition of was determined by the following equation and EC50 values (the concentration at which 50% of the maximal inhibition occurs) calculated using GraphPad Prism 7 software:
(§3) % Inhibition=100−(D−B)/(S−B)*100%. • S: Absorbance of cells treated with DMSO • D: Absorbance of compound-treated cells • B: Absorbance of medium with DMSO without cells

In assay [2] the target is T1, HSP90α protein (Homo sapiens, UniProt P07900). The assay is described as follows: HSP90α-binding FP (BODIPY) assay. The settings on record: read-out: HSP90α binding (BODIPY); FP competition with BODIPY-labeled RNK04010; tested form: TFA. As to the method:
(§4) Binding of test compounds to HSP90α protein was measured by fluorescent polarization (FP) using the HSP90α (N-terminal) Assay Kit (BPS Bioscience, #50298), following the manufacturer's instructions, except as noted. Fluorescently labeled HSP90-binding compounds, either the provided FITC-geldanamycin (5 nM final concentration) or RNK04010, a triazolone-based HSP90 binding small molecule labeled with BODIPY through a piperazine-phenyl linker (5 nM final concentration) were employed. A 2.5-fold serial dilution of each test compound ranging from 20 μM to 5.2 nM was assayed for binding to HSP90α. After the final step of adding HSP90α protein to each assay well, plates were mixed by brief shaking, incubated at 25° C. for 120 min for FITC-geldanamycin or 300 min for RNK04010, and fluorescence was measured using a PerkinElmer EnVision Plate Reader. Background-subtracted mP values were calculated from raw data and a four-parameter “log[inhibitor] vs. response” curve was fitted and IC50 values (the concentration at which 50% of the maximal inhibition occurs) calculated using GraphPad Prism 7 software.

In a further assay the test system is ERBB2. The assay is described as follows: ERBB2 (HER2) flow cytometry protein degradation assay in BT-474 cells. Particulars: DC50, BT-474 cells, 24 hr, tested form: TFA. The procedure:
BT-474 human breast carcinoma cells were plated in 24-well tissue culture plates at 250,000 cells/well and incubated at 37° C./5% CO2 for 24 hr. Cells were then treated with test compounds at various concentrations and incubated at 37° C./5% CO2 for 24 hr. To analyze total ERBB2 expression by flow cytometry, cells were detached with trypsin, washed, counted and treated with 10 μl/10^6 cells PE-conjugated, anti-ERBB2 monoclonal antibody (R&D Systems, #FAB1129P) for 30 min at 25° C. in dark. Cells were then washed, resuspended in 200 μl 1% paraformaldehyde and analyzed by flow cytometry. Compound inhibition of was determined by the following equation and DC50 values (the concentration at which 50% of the maximal degradation of ERBB2 occurs) calculated using GraphPad Prism 7 software:
% Inhibition=100−(D−B)/(S−B)*100%. • S: Fluorescence intensity of cells with antibody • D: Fluorescence intensity of compound-treated cells with antibody • B: Fluorescence intensity of cells without antibody

In assay [3] the test system is MV-4-11 human acute myeloid leukemia. The assay is described as follows: MV-4-11 CCK-8 proliferation assay. The settings on record: read-out: MV-4-11 CCK-8; MV-4-11 cells, 72 hr; tested form: TFA. As to the method: as §1, §2, §3
Another assay has as its target MAPK7 (Homo sapiens, UniProt Q13164). The assay is described as follows: MAPK7 kinase assay (ADP-Glo). Particulars: read-out: MAPK7 kinase, ATP 340 μM, tested form: TFA. As to the method:
The inhibition of MAPK7 kinase activity by test compounds was measured by the ADP-Glo Kinase Assay (Promega, #V6930), following the manufacturer's instructions, except as noted. 3-fold serial dilutions of each test compound were prepared ranging from 50 μM to 2.54 nM. Also, as a positive control, a 4-fold serial dilution of the MAPK7 inhibitor, XMD17-109 (MedChemExpress, #HY-15665) was prepared ranging from 10 μM to 0.04 nM. In brief, in 384-well plates, test compounds were added to the kinase reaction mix containing recombinant MAPK7 protein (Carna Biosciences, #04-146; 20 nM final concentration), myelin basic protein (SignalChem Biotech, #M42-54G; 0.1 mg/ml final concentration) and ATP (340 μM final concentration), then mixed by shaking and incubated with ADP-Glo Reagent and Kinase Detection Reagent. Luminescence was measured on a BioTek plate reader. The % inhibition was calculated using following equation and plotted and IC50 values (the concentration at which 50% of the maximal inhibition occurs) calculated using GraphPad Prism 7 software: […]
Lumpositive: The average ratio for 10 wells of positive controls (10 μM XMD17-109) across the plate.
Lumvehicle: The average ratio for 10 wells of negative controls (0.5% DMSO) across the plate.

The test system of assay [4] is A549 human lung carcinoma. The assay is described as follows: A549 CCK-8 proliferation assay. Particulars: read-out: A549 CCK-8; A549 cells, 72 hr; tested form: TFA. The procedure:
as §1, §2, §3

Assay [5] deals with T1, HSP90α protein. The assay is described as follows: HSP90α-binding FP (FITC) assay. The settings on record: read-out: HSP90α binding (FITC); FP competition with FITC-geldanamycin; tested form: TFA. The procedure:
as §4

Consider `CCOc1cc(N2CCC(C(=O)N3CCC(CN4CCN(Cc5ccc(-n6c(O)nnc6-c6cc(C(C)C)c(O)cc6O)cc5)CC4)CC3)CC2)ccc1Nc1ncc2c(n1)N(S(C)(=O)=O)c1ccccc1C(=O)N2C`, for which the EC50 in assay [1] was 100 to 1000 nM; in assay [3], under 100 nM; in assay [4] it was 100 to 1000 nM. Besides, the results for the IC50 on HSP90α protein [2] and at MAPK7 were under 100 nM and 100 to 1000 nM, respectively. Further, the ERBB2 degradation entry with ERBB2 is reported as “B (DC50 = 100-1000 nM)”.
As to `CCOc1cc(N2CCC(C(=O)N3CCC(COc4ccc(Nc5cc(-n6nc(C(F)(F)F)c7c6CC(C)(C)CC7=O)ccc5C(N)=O)cc4)CC3)CC2)ccc1N(CC)c1ncc2c(n1)N(S(C)(=O)=O)c1ccccc1C(=O)N2C`, the EC50 in assay [1] and in assay [3] was over 1000 nM in each case. In addition, the IC50 on HSP90α protein [2] and at MAPK7 was over 1000 nM in each case.
Turning to `CCOc1cc(N2CCC(C(=O)N3CCC(CN4CCN(Cc5ccc(-n6c(O)nnc6-c6ccc(O)cc6O)cc5)CC4)CC3)CC2)ccc1Nc1ncc2c(n1)N(S(C)(=O)=O)c1ccccc1C(=O)N2C`, the results for the EC50 in assay [1] and in assay [3] were over 1000 nM and 100 to 1000 nM, respectively. The IC50 at HSP90α protein [2] was 100 to 1000 nM.
For the compound `CCOc1cc(N2CCC(C(=O)N3CCC(COc4ccc(Nc5cc(-n6nc(C(F)(F)F)c7c6CC(C)(C)CC7=O)ccc5C(N)=O)cc4)CC3)CC2)ccc1Nc1ncc2c(n1)N(C)c1ccccc1C(=O)N2C`, the EC50 in assay [1] and in assay [3] was over 1000 nM throughout. Also, at HSP90α protein [2], the IC50 is over 1000 nM.
As for `CCOc1cc(N2CCC(C(=O)NCCOc3ccc(-n4c(O)nnc4-c4cc(C(C)C)c(O)cc4O)cc3)CC2)ccc1Nc1ncc2c(n1)N(C)c1ccccc1C(=O)N2C`, the EC50 is 100 to 1000 nM in assay [1] and under 100 nM in assay [3]. The IC50 on HSP90α protein [5] fell in the range of 100 to 1000 nM.
On to `CCOc1cc(N2CCC(C(=O)NCc3ccc(-n4c(O)nnc4-c4ccc(O)cc4O)cc3)CC2)ccc1Nc1ncc2c(n1)N(C)c1ccccc1C(=O)N2C`, for which the EC50 in assay [1] and in assay [3] was over 1000 nM each time. Moreover, at HSP90α protein [2], the IC50 is over 1000 nM. Moreover, in the assay with ERBB2, the ERBB2 degradation result was “C (DC50 > 1000 nM)”.
As for `CCOc1cc(N2CCC(C(=O)NCc3ccc(-n4c(O)nnc4-c4ccc(O)cc4O)cc3)CC2)ccc1Nc1ncc2c(n1)N(S(C)(=O)=O)c1ccccc1C(=O)N2C`, the EC50 in assay [1] and in assay [3] was over 1000 nM in each case. Moreover, the IC50 on HSP90α protein [2] was 100 to 1000 nM.
Turning to `CCOc1cc(N2CCC(C(=O)N3CCC(CN4CCN(Cc5ccc(-n6c(C(=O)NCC(F)(F)F)nnc6-c6cc(CC)c(O)cc6O)cc5)CC4)CC3)CC2)ccc1Nc1ncc2c(n1)N(S(C)(=O)=O)c1ccccc1C(=O)N2C`, the EC50 in assay [1] and in assay [3] was under 100 nM each time. For the same compound, the IC50 at HSP90α protein [2] was in the range of 100 to 1000 nM.
On to `CCOc1cc(N2CCC(C(=O)NCCOCCOCCOc3ccc(-n4c(O)nnc4-c4cc(C(C)C)c(O)cc4O)cc3)CC2)ccc1Nc1ncc2c(n1)N(S(C)(=O)=O)c1ccccc1C(=O)N2C`, for which the EC50 in assay [1] is over 1000 nM; in assay [3] it was under 100 nM. For the same compound, the IC50 at HSP90α protein [2] was under 100 nM.
Take `CCNC(=O)c1nnc(-c2cc(CC)c(O)cc2O)n1-c1ccc(CN2CCN(CC3CCN(C(=O)C4CCN(c5ccc(N(CC)c6ncc7c(n6)N(C)c6ccccc6C(=O)N7C)c(OCC)c5)CC4)CC3)CC2)cc1`: the values for the EC50 in assay [1] and in assay [3] were 100 to 1000 nM and under 100 nM, respectively. For the same compound, at HSP90α protein [2], the IC50 is under 100 nM.
Consider `CCOc1cc(N2CCC(C(=O)NCCOCCOc3ccc(-n4c(O)nnc4-c4cc(CC)c(O)cc4O)cc3)CC2)ccc1Nc1ncc2c(n1)N(S(C)(=O)=O)c1ccccc1C(=O)N2C`, for which the EC50 in assay [1] is over 1000 nM; in assay [3], 100 to 1000 nM. The IC50 at HSP90α protein [2] was under 100 nM.
For `CCOc1cc(N2CCC(C(=O)N3CCC(CN4CCN(Cc5ccc(-n6c(O)nnc6-c6cc(C(C)C)c(O)cc6OC)cc5)CC4)CC3)CC2)ccc1N(CC)c1ncc2c(n1)N(C)c1ccccc1C(=O)N2C`, the IC50 on HSP90α protein [2] and on MAPK7 was over 1000 nM in each case. In addition, the EC50 in assay [3] was over 1000 nM.
